One substance from patent publication US8268635B2, “Methods of identifying agents that selectively activate p38 and/or NKkB signaling” (priority 2006, dated 2012) can be followed below.

Assay [1] deals with JNK. The assay is described as follows: JNK activity in HUVEC (GST-jun solid phase assay). Type of assay: cell-based, human. The conditions noted are these: 15 min; TNF 100 and 1000 U/ml, TNF70-80 1-50 μM. The procedure: (§1) The cells were lysed, and JNK activity was assayed using GST-jun (1-79) as a substrate. The data is presented as means+−sem of 3 experiments. […] The cells were lysed and the level of dual-phosphorylated ERK1/ERK2 was assessed by western blot analysis using the anti-ACTIVE ERK antibody (top panel). The blot was stripped and re-probed with an anti-ERK2 antibody (lower panel) to compare the level of ERK2 protein. The results are representative of 3 experiments, each conducted with cells from a different cord. […] The level of myelin basic protein phosphorylation was quantitated by an Instant Imager. Results are presented as the means+−sem of 3 experiments. Statistical analysis: significant difference between control and stimulated cells, *p<0.05.
Fresh human umbilical cords were obtained from consenting mothers according to the institution's guidelines on human ethics. […]
The cells were lysed in 200 μl of buffer A (20 mM HEPES, pH 7.4, 0.5% (v/v) Nonidet P-40, 100 mM NaCl, 1 mM EDTA, 2 mM Na3VO4, 2 mM dithiotbreitol, 1 mM phenylmethylsulfonyl fluoride, and 10 μg/ml leupeptin, aprotonin, pepstatin A, and benzamidine) for 2 h at 4° C. with constant mixing (20) After centrifugation (12,000 g×5 min), the supernatants were collected and the protein content of the lysates was determined by Lowry's method of protein determination. […]

The next assay deals with p38. The assay is described as follows: p38 activity in HUVEC (immunoprecipitation, myelin basic protein substrate). The conditions noted are these: 5 min; TNF 1,000 U/ml, peptides 10 μM. Type of assay: cell-based, human. The procedure: as §1, with “*p<0.05. […]” for “*p<0.05.”
KHS (hereon referred to as “GCKR”) activity was assayed as described previously using myelin basic protein as a substrate (Shi, C. S., Leonardi, A., Kyriakis, J., Siebenlist, U., and Kerhl, J. H. (1999) J. Immunol. 163: 3279-3285). ASK-1 activation was determined in immunoprecipitates of ASK-1 by autophosphorylation (Kyriakis, J. M., and Auruch, J. (2001) Physiol. Rev. 81: 807-869). p38 and ERK activities were determined as described using myelin basic protein as a substrate (Hii, C. S., Huang, Z. H., Bilney, A., Costabile, M., Murray, A. W., Rathjen, D. A., Der, C. J., and Ferrante, A. (1998) J. Biol. Chem. 273: 19277-19282). […]

Assay [2] has as its system JNK. The assay is described as follows: JNK phosphorylation in HL60 cells (western blot). The class given is cell-based. The conditions noted are these: 15 min; TNF 100 U/ml, anisomycin 2.5 μg/ml.

As to “TNF: Human recombinant TNF produced by Genentech, Inc.”, in the assay with JNK [1], the “activity of JNK in HUVEC” value is listed as “increased”. Further, in the assay with p38, the “activity of p38 in HUVEC” value was “stimulated the activity of p38”. Moreover, the “JNK phosphorylation in HL60 cells” value with JNK [2] is listed as “increased JNK phosphorylation”.
